In ChEMBL document CHEMBL1147428, “A new class of potent non-imidazole H(3) antagonists: 2-aminoethylbenzofurans” (Bioorg Med Chem Lett, 2004) one finds Ki data, which are given here for 8 compounds.

Protein sequences, listed by entry. Tags and fused reporters are not part of them. Lines headed by an entry give the natural chain unless they say otherwise; changes in a name come on top.
UniProt Q9QYN8: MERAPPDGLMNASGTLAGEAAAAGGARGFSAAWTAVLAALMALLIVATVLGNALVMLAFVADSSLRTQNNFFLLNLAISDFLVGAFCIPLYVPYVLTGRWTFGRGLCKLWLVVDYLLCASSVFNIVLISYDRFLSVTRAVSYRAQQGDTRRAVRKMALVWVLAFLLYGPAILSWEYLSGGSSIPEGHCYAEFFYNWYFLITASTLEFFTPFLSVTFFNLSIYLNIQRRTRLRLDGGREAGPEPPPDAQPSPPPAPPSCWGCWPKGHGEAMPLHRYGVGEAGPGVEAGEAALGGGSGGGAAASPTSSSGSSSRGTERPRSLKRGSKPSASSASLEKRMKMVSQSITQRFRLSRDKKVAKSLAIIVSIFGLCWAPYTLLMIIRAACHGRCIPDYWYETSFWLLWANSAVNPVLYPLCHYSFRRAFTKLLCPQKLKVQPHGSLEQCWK

The term Ki denotes the equilibrium dissociation constant of an inhibitor or competing ligand from its target.

The assay has as its target Histamine H3 receptor (Rattus norvegicus, UniProt Q9QYN8). Description: Binding potency was determined by displacement of [3H]N-alpha-methyl histamine from histamine H3 receptor of rat cortical membranes. Type of assay: cell membranes, Membrane.

Compound `CC1CCN(CCc2cc3cc(-c4ccc(C(=O)N5CCOCC5)cc4)ccc3o2)CC1` registered an inhibition constant Ki of 43 nM.

As to `N#Cc1ccc(-c2ccc3oc(CCN4CCC[C@@H]4CO)cc3c2)cc1`, the affinity corresponds to a Ki of 160 nM. Consider `C[C@@H]1CC[C@@H](C)N1CCc1cc2cc(-c3ccc(C(=O)N4CCOCC4)cc3)ccc2o1`, for which the affinity corresponds to a Ki of 6.9 nM.

As to `O=C(c1ccc(-c2ccc3oc(CCN4CCC(O)C4)cc3c2)nc1)N1CCOCC1` (stereo not drawn), the Ki came out at 67 nM. Regarding `N#Cc1ccc(-c2ccc3oc(CCN4CCC[C@H]4CO)cc3c2)cc1`, affinity was put at a Ki of 26 nM.

`N#Cc1ccc(-c2ccc3oc(CCn4ccnc4)cc3c2)cc1` showed a Ki of 2200 nM.

`O=C(c1ccc(-c2ccc3oc(CCN4CCCCCC4)cc3c2)cc1)N1CCOCC1` showed a Ki of 10 nM. In turn, `N#Cc1ccc(-c2ccc3oc(CCN4CCCCCC4)cc3c2)cc1` had a Ki of 44 nM.
